According to patent US11180509B2, “Thiazolidone spiro pyrimidine trione compound, preparation method therefor and uses thereof” (SHANGHAI INSTITUTE OF MATERIA MEDICA, CHINESE ACADEMY OF …, priority 2017, dated 2021):

Tests used:
[1] = test system: MRSA, MSSA, MRSE, MSSE, PRSP, and Spy; test: In vitro antibacterial activity over the whole strain panel, compared with AZD0914; type: cell-based; conditions: against MRSA
Description: The following strains isolated in clinic were used in antibacterial activity screening in vitro: five strains of methicillin-resistant Staphylococcus aureus or MRSA, five strains of methicillin-sensitive Staphylococcus aureus or MSSA, five strains of methicillin-resistant Staphylococcus epidermidis or MRSE, five strains of methicillin-sensitive Staphylococcus epidermidis or MSSE, three strains of penicillin-resistant Streptococcus pneumoniae or PRSP, and three strains of Streptococcus pyogenes.
The above strains were clinically isolated pathogenic bacteria collected in Sichuan and Beijing in December 2015. They were identified by the collection unit via a VITEK-60 automatic microbiological identification instrument, and then re-identified by conventional methods in the laboratory. […]
The MIC value of each test sample for the tested strain was determined by micro broth dilution method recommended by Performance Standards for Antimicrobial Susceptibility Testing (Twenty-Third Informational Supplement; M02-A11, M07-A9 and M11-A8, 2013) of American Clinical and Laboratory Standards Institute (CLSI). […]
The test bacterial solution was adjusted with physiological saline to a bacterial suspension equivalent to 0.5 Maisson turbidity standard, and diluted 1:100 with MH broth. […] The plate was sealed and placed in a 35-37° C. incubator for 18-20 h, and then the results were determined. […]

[2] = In vivo pharmacokinetics test in mice (oral); parameters: species or system CD-1 mice; conditions: PO 10.0 mg/kg, multiple of the AZD0914 value
Method: Healthy female CD-1 mice were randomly divided into five groups and each group comprised three mice. The tested compound was administered orally.
0.030 mL of blood was taken from the orbit of each animal each time and anticoagulated with EDTAK2. The collection time was as follows. PO group: 15 m, 30 mi, 1 h, 2 h, 4 h, 6 h, 8 h, and 24 h after administration of the test compound. The collected blood samples were placed on ice and centrifuged within 30 minutes to separate the plasma (centrifugation conditions: 5000 rpm, 10 minutes, room temperature). The samples were stored at −80° C. before analysis.

[3] = test system: S. aureus MRSA15-3 infected mice; test: In vivo protection test, systemic infection model (ED50); parameters: species or system Kunming mice; conditions: oral administration
Method: Based on the results of the in vitro test, the clinically isolated methicillin-resistant Staphylococcus aureus MRSA15-3 (see Table 6 below) was selected as a candidate test strain for in vivo protection experiments.
Healthy Kunming mice: aged about 4 weeks, 18-22 g, half male and half male, SPF grade.
One day before the infection of the test bacteria, 2-3 single colonies were picked, inoculated into 2 mL of MH broth, and incubated at 37° C. for 6 h. 0.1 ml of such bacterial solution was transferred to 10 mL of MH broth, and incubated at 37° C. for 18 h. This bacterial solution was the original bacterial stock solution. The bacterial stock solution was diluted in proportion with 5% dry yeast solution for future use (freshly prepared on the same day).
Healthy Kunming mice, weighing 18 to 22 grams, were randomly divide into groups and each group comprised 5-10 mice, half male and half male. The above-mentioned bacterial solution with different dilution concentration were taken and injected into the mice intraperitoneally at a dose of 0.5 ml per 20 g mice weight. […] The minimum dose of bacteria that causes 100% death of mice is the minimum lethal dose (MLD), which is used as the infectious bacteria dose in the in vivo protection test. […]

Row | Structure (SMILES) | in vitro antibacterial activity relative to AZD0914 [1] | AUC0→t relative to AZD0914 [2] | Cmax relative to AZD0914 [2] | in vivo protective effect relative to AZD0914 [3]
1 | C[C@@H]1CN2c3c(cc4c(N5C[C@H](C)SC5=O)noc4c3F)CC3(C(=O)NC(=O)NC3=O)[C@H]2[C@H](C)O1 [Compound 2, (2R,4S,4aS)-11-fluoro-2,4-dimethyl-8-((S)-5-methyl-2-oxothiazolin-3-yl)-1,2,4,4a-tetrahydro-2′H,6H-spiro[isoxazole[4,5-g][1,4]oxazine[4,3-a]quinoline-5,5′-pyrimidine]-2′,4′,6′(1′H,3′H)-trione] | about 8 times | ~32 times) | ~14 times) | four-fold stronger
2 | C[C@@H]1CN2c3c(cc4c(N5C[C@@H](C)SC5=O)noc4c3F)CC3(C(=O)NC(=O)NC3=O)[C@H]2[C@H](C)O1 [Compound 3, (2R,4S,4aS)-11-fluoro-2,4-dimethyl-8-((R)-5-methyl-2-oxothiazolin-3-yl)-1,2,4,4a-tetrahydro-2′H,6H-spiro[isoxazole[4,5-g][1,4]oxazine[4,3-a]quinoline-5,5′-pyrimidine]-2′,4′,6′(1′H,3′H)-trione] | about 8 times | ~16 times) | ~12 times) | –
